Measured values published in US20070015231A1, “Assay for protein tyrosine phosphatases” (CEPTYR, Inc., priority 2000, published 2007).
Substitutions are numbered along the chain they refer to. One block for each substance: values may come before it.

Tests used:
[1] = molecular target: fluorescein-labeled p56lck phosphopeptide A-T-E-G-Q-pY-Q-P-Q-P; assay: fluorescence polarization, mutant PTP titrated against fluorescein-labeled peptide in solution
[2] = molecular target: T1, PTP1B(D181A) (Homo sapiens, UniProt P18031, D181A); assay: PTP-1B (DA) binding assay: fluorescence polarization binding of fluorescein-labeled phosphotyrosyl peptides
T1 construct: PTP1B proteins (wild type and mutant forms) comprising amino acids 1-321 were expressed in E. coli; made in house; host or cells: E. coli
T1 sequence (P18031 1-321 D181A): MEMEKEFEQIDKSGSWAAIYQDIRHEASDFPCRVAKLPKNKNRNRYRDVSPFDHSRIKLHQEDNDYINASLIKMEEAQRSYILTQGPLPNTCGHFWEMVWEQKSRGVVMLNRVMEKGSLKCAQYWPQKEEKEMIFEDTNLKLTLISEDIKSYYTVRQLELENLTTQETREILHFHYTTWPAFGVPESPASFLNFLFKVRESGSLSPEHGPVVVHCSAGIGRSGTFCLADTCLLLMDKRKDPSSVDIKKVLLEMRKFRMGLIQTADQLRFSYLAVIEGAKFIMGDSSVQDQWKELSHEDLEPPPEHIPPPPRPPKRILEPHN
Experimental: (§1) Two assay parameters were measured: (1) the dynamic range of the signal (i.e. the difference between polarization values of the bound and the unbound fluorescent substrate) and (2) the midpoint of the transition between bound and unbound that represents the apparent Kd (i.e. affinity) of each binding mutant for each peptide.
(§2) Assays were set up at room temperature in black polypropylene 96 well microtiter plates (Polyfiltronics, Whatman, U. K.) by the sequential addition of 40 μl of Assay Buffer, 40 μl of diluted binding protein and 40 μl of 0.3 nM fluorescein-labeled substrate peptide. After 15 min plates were read in a Criterion Analyst™ (LJL BioSystems, Inc., Sunnyvale, Calif.) in fluorescence polarization detection mode using the parameters listed as follows:
(§3) To obtain values for background fluorescence, assays were set up as above except the fluorescein-labeled substrate was replaced with Assay Buffer. To determine the fluorescence polarization values for the unbound substrate peptide, assays were set up as above except that the 40 μl of diluted binding protein was replaced with Assay Buffer.

[3] = molecular target: T2, PTP1B(C215S) (Homo sapiens, UniProt P18031, C215S); assay: PTP-1B (CS) binding assay: fluorescence polarization binding of fluorescein-labeled phosphotyrosyl peptides
T2 construct: PTP1B proteins (wild type and mutant forms) comprising amino acids 1-321 were expressed in E. coli; made in house; host or cells: E. coli
T2 sequence (P18031 1-321 C215S): T1 sequence (P18031 1-321 D181A) with A181D, C215S
Experimental: as §1, §2, §3

- Peak mP [1]: 266 mP
Substance: PTP1B(C215S), amino acids 1-321 (from UniProt P18031 1-321) (enzyme)

- Peak Mp [1]: 277 mP
Substance: PTP1B(D181A), amino acids 1-321 (from UniProt P18031 1-321) (enzyme)

- maximum polarization value for bound peptide ([2]; DA binding mutant): 277 mP
- Peak Mp ([2]; Table 2, titrated with DA mutant): 276.9 Mp
- maximum polarization value for the fully bound peptide substrate ([3]; CS binding mutant): 266 mP
- Peak mP ([3]; Table 1, 0.1 nM-range fluorescein-labeled peptide titrated with CS mutant): 266.4 mP
Substance: A-T-E-G-Q-pY-Q-P-Q-P (ATEGQYQPQP; fluorescein label; phosphotyrosine; Substrate for PTBs synthesized from residues 500-509 of p56lck, the src-like lymphocyte specific protein tyrosine kinase that is a physiological substrate for CD45.) [F-lck-P]
